Laboratory results: patent US7723366B2 (Chugai Seiyaku Kabushiki Kaisha, priority 2001, dated 2010)

Protein sequences, listed by entry. Tags and fused reporters are not part of them. Residues count along the entry.
UniProt Q920F5, 39-492 limits assumed: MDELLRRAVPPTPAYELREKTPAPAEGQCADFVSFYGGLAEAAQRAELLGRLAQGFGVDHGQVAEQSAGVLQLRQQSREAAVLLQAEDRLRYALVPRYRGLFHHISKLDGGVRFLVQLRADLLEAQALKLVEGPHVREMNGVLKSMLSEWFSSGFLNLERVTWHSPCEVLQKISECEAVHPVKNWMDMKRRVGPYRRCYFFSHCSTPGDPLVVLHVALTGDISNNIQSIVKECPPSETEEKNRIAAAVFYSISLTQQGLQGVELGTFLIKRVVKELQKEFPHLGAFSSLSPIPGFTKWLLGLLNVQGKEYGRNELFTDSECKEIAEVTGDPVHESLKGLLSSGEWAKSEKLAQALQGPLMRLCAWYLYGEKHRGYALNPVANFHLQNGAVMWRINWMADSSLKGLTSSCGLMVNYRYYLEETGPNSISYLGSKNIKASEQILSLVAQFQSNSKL

Target: malonyl-CoA decarboxylase prepared from rat heart (Rattus norvegicus, UniProt Q920F5)
Test: In vitro MCD inhibitory assay (spectrophotometric, 96 well)
Conditions: read-out: IC50 of the MCD inhibitors

With CCCN(C(=O)N1CCOCC1)c1ccc2nc(S)sc2c1 the IC50 was 151 nM.
